ChEMBL document CHEMBL6078710, “Design, synthesis and biological evaluation of new SIRT3 activators for the treatment of triple-negative breast cancer” (Bioorg Med Chem, 2025)

What was measured:
[1] = molecular target: T1, NAD-dependent protein deacetylase sirtuin-3, mitochondrial (Homo sapiens) (UniProt Q9NTG7); assay: Activation of SIRT3 (unknown origin) at 10 uM; settings: filed as activator
T1 sequence (whole entry): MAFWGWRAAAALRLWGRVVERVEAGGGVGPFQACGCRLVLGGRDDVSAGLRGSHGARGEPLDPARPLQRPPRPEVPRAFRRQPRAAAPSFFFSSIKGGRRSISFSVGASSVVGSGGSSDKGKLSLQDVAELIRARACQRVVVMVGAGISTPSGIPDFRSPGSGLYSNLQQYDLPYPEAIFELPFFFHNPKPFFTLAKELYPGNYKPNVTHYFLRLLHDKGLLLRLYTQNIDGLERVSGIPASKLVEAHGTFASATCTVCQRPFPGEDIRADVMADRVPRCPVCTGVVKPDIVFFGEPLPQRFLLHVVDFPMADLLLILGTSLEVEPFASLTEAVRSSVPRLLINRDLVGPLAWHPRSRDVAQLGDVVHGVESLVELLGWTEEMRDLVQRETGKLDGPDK

[2] = system: MCF7; assay: Cytotoxicity against human MCF7 cells assessed as reduction in cell viability; assay type: toxicity, cell-based
[3] = molecular target: T1, NAD-dependent protein deacetylase sirtuin-3, mitochondrial (Homo sapiens); assay: Agonist activity at SIRT3 (unknown origin) deacetylation activity assessed as fold change at 50 uM incubated for 30 mins; settings: filed as agonist

With `CCCCCNC(=O)c1c(N)n(Cc2ccc(F)cc2)c2nc3ccccc3nc12` the Activity [1] was 150%.

`CCOC(=O)C1=CN(C(=O)c2ccc(OC)c(OC)c2)C=C(C(=O)OCC)C1c1cnc(Cl)c(Cl)c1` was tested, and the Activity [2] was “Toxic”.

In the case of `CCOC(=O)C1=CN(C(=O)c2cc(OC)c(OC)c(OC)c2)C=C(C(=O)OCC)C1c1ccc(S(C)(=O)=O)cc1`, the fold change (FC) [3] is reported as 20.
